Measured values reported in patent publication US20140227357A1, “FILL FORMULATIONS AND CAPSULES AND METHOD OF USE TO AVOID MIGRATION OF FILL INTO OR THROUGH THE SHELL” (CAPSUGEL BELGIUM NV, priority 2011, published 2014).

Test: Technical batch stability study, 2-butanol and 2-pentanone assay by gas chromatography
Assay type: physicochemical
Conditions: in Formulation 4, sealed LICAPS; 6 months at 25° C./60% RH in PE bags

assay, % label claim: 100.7%
Compound: CCCC(C)=O [Formulation 2-pentanone, 2-pentanone]
